Data published in US20250009745A1, “CDK INHIBITOR” (SHANGHAI QILU PHARMACEUTICAL RESEARCH AND DEVELOPMENT …, priority 2021, published 2025).

Protein sequences, listed by entry. Tags and fused reporters are not part of them.
UniProt P11802, whole entry: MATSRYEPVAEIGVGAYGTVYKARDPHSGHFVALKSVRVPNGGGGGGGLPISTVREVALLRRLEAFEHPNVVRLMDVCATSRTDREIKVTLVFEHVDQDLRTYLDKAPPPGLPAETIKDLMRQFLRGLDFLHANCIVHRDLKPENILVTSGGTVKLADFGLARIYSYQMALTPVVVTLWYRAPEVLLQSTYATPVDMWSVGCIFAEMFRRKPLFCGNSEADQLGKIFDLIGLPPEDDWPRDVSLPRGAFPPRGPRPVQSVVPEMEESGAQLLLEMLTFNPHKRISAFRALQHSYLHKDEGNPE
UniProt Q00534, whole entry: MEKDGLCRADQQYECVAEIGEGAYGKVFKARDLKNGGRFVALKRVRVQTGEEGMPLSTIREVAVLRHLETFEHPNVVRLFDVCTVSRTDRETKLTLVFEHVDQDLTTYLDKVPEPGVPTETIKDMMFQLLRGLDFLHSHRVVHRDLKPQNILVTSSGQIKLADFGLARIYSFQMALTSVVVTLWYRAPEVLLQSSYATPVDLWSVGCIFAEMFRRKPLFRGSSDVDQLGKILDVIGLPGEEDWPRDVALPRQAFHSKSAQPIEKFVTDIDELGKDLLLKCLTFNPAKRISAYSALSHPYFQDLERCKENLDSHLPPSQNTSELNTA
UniProt P30281, whole entry partner: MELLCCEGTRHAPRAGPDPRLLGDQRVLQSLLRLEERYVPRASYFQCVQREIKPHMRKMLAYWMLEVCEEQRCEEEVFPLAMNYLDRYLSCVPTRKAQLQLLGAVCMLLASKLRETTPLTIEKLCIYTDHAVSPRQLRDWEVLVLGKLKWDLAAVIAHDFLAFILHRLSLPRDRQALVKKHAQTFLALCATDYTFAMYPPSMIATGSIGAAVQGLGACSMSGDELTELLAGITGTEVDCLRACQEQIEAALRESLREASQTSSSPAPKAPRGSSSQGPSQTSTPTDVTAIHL

Assays:
Experiment in all cases: CDK enzymology experiment in vitro, capillary mobility shift assay (MSA)
Type in all cases: biochemical
[1] = target: CDK2 (Homo sapiens, UniProt P24941); conditions: read-out: CDK2 (nM) inhibitory IC50
[2] = target: CDK4 (Homo sapiens, UniProt P11802); conditions: read-out: CDK4 (nM) inhibitory IC50
[3] = target: CDK6 (Homo sapiens, UniProt Q00534); conditions: read-out: CDK6 (nM) inhibitory IC50

Structure (SMILES)	IC50 [1]	IC50 [2]	IC50 [3]
C[C@@H]1CN(c2ccc(S(=O)(=O)N3CCC(Nc4ncc(C(F)(F)F)c(C=C5CCCC5)n4)CC3)cc2)C[C@H](C)N1	0.5 to 2.5 nM	2.5 to 10 nM	10 to 50 nM
C[C@H]1CN(c2ccc(S(=O)(=O)N3CCC(Nc4ncc(C(F)(F)F)c(C=C5CCCC5)n4)CC3)cc2)C[C@H](C)N1	0.5 to 2.5 nM	2.5 to 10 nM	
COc1cc(S(=O)(=O)N2CCC(Nc3ncc(C(F)(F)F)c(O[C@H]4CCOC4)n3)CC2)ccc1C1CCNCC1	< 0.5 nM	0.5 to 2.5 nM	0.5 to 2.5 nM
C[C@H]1CN(c2ccc(S(=O)(=O)N3CCC(Nc4ncc(C(F)(F)F)c(O[C@@H]5CCOC5)n4)CC3)cc2)C[C@H](C)N1	2.5 to 10 nM	10 to 50 nM	
